Measurements as given in publication PMC6374516, “Phencynonate S-isomer as a eutomer is a novel central anticholinergic drug for anti-motion sickness” (2019).

Experiments:
motion sickness [1] = assay: Rotation stimulation, motion sickness index in mice; conditions: oral, 30 min before rotation
CYP1A1 = CYP1A1 protein level in rat liver by Western blot; conditions: compared to control group
Caco-2 cell monolayer = assay: Transport across a Caco-2 cell monolayer; conditions: AP to BL, within 120 min after dosing, R- versus S-isomer
[2] = Plasma protein binding in rat plasma by equilibrium dialysis
[3] = Chiral metabolism in rat liver microsomes
locomotor activity = assay: Locomotor activity test in mice; conditions: 1.4 and 5.6 mg/kg, oral
motion sickness [4] = conditions: clinical trials, cited from earlier work
[5] = isomer concentration 62.5 μg/ml
[6] = high-concentration (400 μM racemate), after 150 min
[7] = low-concentration group (100 μM racemate), after 120 min
[8] = medium-concentration (200 μM racemate), after 150 min

SMILES | reduction of the motion sickness index (motion sickness [1]; high dose 5.6 mg/kg) [%] | reduction of the motion sickness index (motion sickness [1]; low dose 1.4 mg/kg) [%] | decrease of CYP1A1 protein (CYP1A1) [%] | permeability across Caco-2 monolayer (Caco-2 cell monolayer) | plasma binding rate [2, 5] [%] | plasma binding rate ([2]; isomer concentration 125 μg/ml) [%] | plasma binding rate ([2]; isomer concentration 250 μg/ml) [%] | unchanged concentration in rat liver microsomes [3, 6] | unchanged concentration in rat liver microsomes [3, 7] | unchanged concentration in rat liver microsomes [3, 8] | total distance (locomotor activity) (locomotor activity) | central distance ratio (anxiogenic indicator) (locomotor activity; versus model group) | incidence of drowsiness (motion sickness [4]) | overall effective rates for the prevention of seasickness and carsickness (motion sickness [4]; oral 1–2 mg/person)
CN1CC2CCCC(C1)C2OC(=O)[C@](O)(c1ccccc1)C1CCCC1 (some centres unmarked) | 79.3 | 53.4 | 23 | no obvious difference in the permeability | 64.03 | 60.33 | 54.65 | 90.92 ± 2.72 | 23.14 ± 1.86 | 38.33 ± 1.58 | reversely increased the total distance | significantly reduce the central distance ratio | – | –
CN1CC2CCCC(C1)C2OC(=O)C(O)(c1ccccc1)C1CCCC1 (centres unmarked) | – | – | – | – | – | – | – | – | – | – | – | – | significantly lower than that of scopolamine | very significantly higher than that of placebo and control drug
CN1CC2CCCC(C1)C2OC(=O)[C@@](O)(c1ccccc1)C1CCCC1 (some centres unmarked) | – | – | – | – | 64.46 | 62.18 | 56.02 | 127.93 ± 5.71 | 36.88 ± 0.42 | 63.33 ± 5.45 | – | – | – | –
